Test system: MDR1-MDCK cells
Assay: MDR1-MDCK permeability and P-gp substrate identification (bi-directional)

COc1cc2nc(N3CCN(C(=O)c4ccco4)CC3)nc(N)c2cc1OC [prazosin, reference compound]
efflux (control compound) (in the absence of Cyclosporin A): showing efflux
efflux (control compound) (in the presence of Cyclosporin A): inhibited

Reference: US20180235949A1 (priority 2015, published 2018)
